These are literature values, as cited in article PMC4646965.

This series addresses rhodopsin (UniProt P02699).

Consider Rac1 (from UniProt P63000), for which the Kd (as a rule, a measure of binding affinity in units of concentration) is 1300 nM.
